Target: Myosin light chain kinase, smooth muscle (Homo sapiens, UniProt Q15746)
Assay: Inhibition of Myosin light chain kinase 1 (MLCK1)

Amino acid sequences for entries named in this document (tags omitted).
UniProt Q15746, whole entry: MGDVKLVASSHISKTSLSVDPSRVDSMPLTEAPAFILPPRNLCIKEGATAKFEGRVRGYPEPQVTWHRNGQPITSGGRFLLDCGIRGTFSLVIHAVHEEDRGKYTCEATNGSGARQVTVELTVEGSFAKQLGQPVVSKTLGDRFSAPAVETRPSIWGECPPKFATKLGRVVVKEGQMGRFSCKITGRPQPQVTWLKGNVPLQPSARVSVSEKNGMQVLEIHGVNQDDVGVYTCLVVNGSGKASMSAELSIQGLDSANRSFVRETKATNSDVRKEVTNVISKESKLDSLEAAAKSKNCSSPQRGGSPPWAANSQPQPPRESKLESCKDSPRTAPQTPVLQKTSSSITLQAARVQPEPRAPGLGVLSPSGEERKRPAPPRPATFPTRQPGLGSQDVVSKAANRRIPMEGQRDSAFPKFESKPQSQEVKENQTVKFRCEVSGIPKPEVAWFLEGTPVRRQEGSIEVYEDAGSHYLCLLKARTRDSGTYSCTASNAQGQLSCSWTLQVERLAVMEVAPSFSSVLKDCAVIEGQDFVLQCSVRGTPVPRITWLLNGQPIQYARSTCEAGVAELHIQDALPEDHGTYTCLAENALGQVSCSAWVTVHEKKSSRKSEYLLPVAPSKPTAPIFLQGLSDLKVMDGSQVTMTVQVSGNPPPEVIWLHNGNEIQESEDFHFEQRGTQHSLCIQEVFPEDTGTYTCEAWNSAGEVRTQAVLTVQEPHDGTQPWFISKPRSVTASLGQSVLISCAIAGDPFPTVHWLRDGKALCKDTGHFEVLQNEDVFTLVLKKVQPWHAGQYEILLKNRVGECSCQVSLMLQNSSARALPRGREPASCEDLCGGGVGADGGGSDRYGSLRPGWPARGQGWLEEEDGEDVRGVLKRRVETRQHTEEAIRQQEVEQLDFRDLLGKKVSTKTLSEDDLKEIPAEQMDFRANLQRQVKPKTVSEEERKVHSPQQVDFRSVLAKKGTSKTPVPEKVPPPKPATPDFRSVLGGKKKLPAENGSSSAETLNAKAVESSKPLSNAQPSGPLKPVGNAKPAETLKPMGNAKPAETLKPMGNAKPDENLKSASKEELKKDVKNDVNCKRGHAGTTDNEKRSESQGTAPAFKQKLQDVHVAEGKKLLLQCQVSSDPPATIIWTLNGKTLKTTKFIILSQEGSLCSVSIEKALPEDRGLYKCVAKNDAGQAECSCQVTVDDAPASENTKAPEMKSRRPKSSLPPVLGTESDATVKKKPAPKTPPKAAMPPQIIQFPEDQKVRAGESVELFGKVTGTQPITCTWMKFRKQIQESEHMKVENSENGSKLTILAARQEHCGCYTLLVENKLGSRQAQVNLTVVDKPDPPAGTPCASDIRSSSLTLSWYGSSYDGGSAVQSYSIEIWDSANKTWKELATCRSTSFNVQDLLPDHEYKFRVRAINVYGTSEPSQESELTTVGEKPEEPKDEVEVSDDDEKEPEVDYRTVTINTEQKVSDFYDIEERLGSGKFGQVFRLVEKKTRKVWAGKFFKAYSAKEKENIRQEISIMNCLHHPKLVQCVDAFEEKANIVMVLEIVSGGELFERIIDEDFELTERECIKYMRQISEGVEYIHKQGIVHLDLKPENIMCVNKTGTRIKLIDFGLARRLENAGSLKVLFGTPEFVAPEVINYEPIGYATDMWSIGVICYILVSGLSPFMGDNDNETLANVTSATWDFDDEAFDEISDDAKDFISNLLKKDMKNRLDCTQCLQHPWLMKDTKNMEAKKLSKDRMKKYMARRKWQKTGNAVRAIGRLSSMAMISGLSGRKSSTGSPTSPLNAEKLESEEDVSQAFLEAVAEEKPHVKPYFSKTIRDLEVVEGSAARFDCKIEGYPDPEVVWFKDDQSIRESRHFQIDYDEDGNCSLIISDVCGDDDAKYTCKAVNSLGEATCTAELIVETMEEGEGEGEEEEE

Compound: COC(=O)[C@@]1(O)C[C@H]2O[C@]1(C)n1c3ccccc3c3c4c(c5c6ccccc6n2c5c31)C(=O)NC4 [K-252A]
- IC50: 0.022 µM

Reference: ChEMBL document CHEMBL1135387, “Synthesis and kinase inhibitory activity of 3'-(S)-epi-K-252a” (Bioorg Med Chem Lett, 2002)
